Literature values, collected in US10046060B2, “Co-administration of an agent linked to an internalization peptide with an anti-inflammatory” (NoNO Inc., priority 2007, dated 2018).
Some compounds may have been tested in ways that are not shown here.

Conditions: Table 1 comment; cited from earlier work

Compound: CCC(=O)N(c1ccccc1)C1(C(=O)OC)CCN(CCC(=O)OC)CC1
- halflife: 3.5 min
